# Test results: US6326139A (priority 1997, dated 2001)
# By UniProt entry, the sequences of proteins in these tests, tags left out. Residues count along the entry.
# UniProt P06276, 29-602 D98G limits assumed: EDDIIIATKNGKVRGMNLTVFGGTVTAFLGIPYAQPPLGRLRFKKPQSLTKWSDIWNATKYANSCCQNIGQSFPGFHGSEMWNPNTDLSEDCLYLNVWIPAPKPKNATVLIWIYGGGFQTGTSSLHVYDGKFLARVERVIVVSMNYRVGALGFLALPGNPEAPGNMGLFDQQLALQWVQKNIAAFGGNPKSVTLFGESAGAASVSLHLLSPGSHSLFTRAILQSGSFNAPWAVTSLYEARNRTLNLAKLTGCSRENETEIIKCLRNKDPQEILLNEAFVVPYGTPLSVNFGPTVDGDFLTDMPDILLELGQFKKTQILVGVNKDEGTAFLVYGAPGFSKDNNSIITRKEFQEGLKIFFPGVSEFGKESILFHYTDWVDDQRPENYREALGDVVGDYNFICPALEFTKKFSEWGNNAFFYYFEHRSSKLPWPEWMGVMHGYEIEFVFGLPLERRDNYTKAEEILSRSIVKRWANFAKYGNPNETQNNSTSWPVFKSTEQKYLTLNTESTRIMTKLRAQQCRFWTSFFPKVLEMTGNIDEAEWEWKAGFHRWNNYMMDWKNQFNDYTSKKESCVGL
# UniProt P22303, 32-614 limits assumed: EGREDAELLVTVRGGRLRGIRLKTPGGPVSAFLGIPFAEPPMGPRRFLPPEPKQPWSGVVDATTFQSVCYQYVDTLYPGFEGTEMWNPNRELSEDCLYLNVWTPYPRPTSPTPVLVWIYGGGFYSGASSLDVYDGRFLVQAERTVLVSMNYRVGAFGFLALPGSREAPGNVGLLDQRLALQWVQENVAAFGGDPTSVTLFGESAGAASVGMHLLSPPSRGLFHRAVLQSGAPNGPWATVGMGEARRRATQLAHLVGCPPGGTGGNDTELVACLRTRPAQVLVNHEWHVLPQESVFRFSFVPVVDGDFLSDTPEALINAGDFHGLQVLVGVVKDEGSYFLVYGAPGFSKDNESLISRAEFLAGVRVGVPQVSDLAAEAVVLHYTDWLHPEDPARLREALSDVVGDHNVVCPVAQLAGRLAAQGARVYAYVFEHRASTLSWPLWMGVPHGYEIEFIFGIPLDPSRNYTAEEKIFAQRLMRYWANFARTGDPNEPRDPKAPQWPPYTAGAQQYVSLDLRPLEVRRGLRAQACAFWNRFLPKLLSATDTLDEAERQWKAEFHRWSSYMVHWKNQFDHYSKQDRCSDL
# Legend:
# [1] = biological target: "atypical" BuChE (Homo sapiens, UniProt P06276, D98G); conditions: in contrast to the normal enzyme; cited from earlier work
# [2] = system: primary murine bone marrow cells (CFU-GEMM); assay: CFU-GEMM cell counts; conditions: peak at 5-15 μM
# [3] = system: CFU-MK and CFU-GEMM cultures; assay: Apoptotic DNA fragmentation; conditions: CFU-MK 5 μM, CFU-GEMM 10 μM peak
# [4] = system: CFU-MK and CFU-GEMM cultures; assay: Cell composition of bone marrow cultures; conditions: with IL-3, and IL-3 + Epo and transferrin
# [5] = system: CFU-GEMM colonies; assay: Differential cell analysis of CFU-GEMM colonies; conditions: rising concentration up to 15 μM
# [6] = system: primary murine bone marrow cells (CFU-MK); assay: CFU-MK colony counts in primary bone marrow cultures; conditions: for CFU-MK Colony counts: day 4
# [7] = system: BCHEmRNA; assay: In situ hybridization of bone marrow smears, BCHEmRNA; conditions: 20 days after single i.p. injection, 5 μg/gr
# [8] = system: ACHEmRNA; assay: In situ hybridization of bone marrow smears, ACHEmRNA; conditions: 20 days after single i.p. injection, 5 μg/gr
# [9] = system: primary murine bone marrow cells (CFU-GEMM); assay: CFU-GEMM colony counts in primary bone marrow cultures; conditions: for CFU-GEMM Colony Counts (Mean ± STD): day 8
# [10] = system: Rec. BuChE D/G (1:1 mixture); assay: Inhibition by cocaine / α-solanine, recombinant D/G mixture; format: biochemical, human; conditions: read-out: IC50 Cocaine
# [11] = system: Serum BuChE D/G (heterozygote); assay: Inhibition by cocaine / α-solanine, serum D/G; format: biochemical, human; conditions: read-out: IC50 Cocaine
# [12] = biological target: Rec. AChE (Homo sapiens, UniProt P22303); assay: Inhibition by cocaine, recombinant AChE; format: biochemical; conditions: up to 0.1 mM
# [13] = biological target: serum and recombinant "atypical" BuChE (Homo sapiens, UniProt P06276, D98G); assay: Inhibition by cocaine / α-solanine, "atypical" enzymes; format: biochemical
# [14] = system: infants of cocaine-using mothers; conditions: mothers of average age of 27 years; cited from earlier work
# [15] = system: rats; conditions: prophylactic or therapeutic; cited from earlier work
# [16] = system: primates; conditions: acute and long-term (6 weeks) effects; cited from earlier work
compound,measurement,setting,value
CCOP(=O)(OCC)SCC[N+](C)(C)C,sensitivity of atypical variant to inhibitors,[1],much less sensitive
5'-GACTTTGCTATGCAT-3',CFU-GEMM cell counts over controls,[2],2 fold
same,"apoptosis, difference from control lanes",[3],no discernible difference
same,"cell composition, macrophages and neutrophils",[4],correspondingly more macrophages and neutrophils
same,"cell composition, megakaryocytes",[4],considerably less megakaryocytes
same,early MKs,[5],"corresponding decline in early, but not late MKs"
same,CFU-MK Colony counts,[6]; 2.5 μM,274.4
same,CFU-MK Colony counts,[6]; 5.0 μM,173.4
same,CFU-MK Colony counts,[6]; 7.5 μM,80.7
same,CFU-MK Colony counts,[6]; 10.0 μM,142.4
same,CFU-MK Colony counts,[6]; 15.0 μM,130.2
same,CFU-MK numbers,"[6]; concentrations higher than 5 μM, absence of Epo",dropped sharply
same,BCHEmRNA over MK in bone marrow smears,[7],almost no BCHEmRNA could be detected
same,reduction of ACHEmRNA labeling of MK,[8],40%
same,CFU-GEMM Colony Counts (Mean ± STD),[9]; 5.0 μM,33.9 ± 9.8
same,rise in CFU-GEMM number above control values,"[9]; 5 μM, representative experiment, FIG. 9",about 60%
same,CFU-GEMM Colony Counts (Mean ± STD),[9]; 10.0 μM,32.6 ± 7.0
same,CFU-GEMM Colony Counts (Mean ± STD),[9]; 15.0 μM,38.0 ± 16.4
same,CFU-GEMM Colony Counts (Mean ± STD),[9]; 20.0 μM,31.0 ± 8.5
same,CFU-GEMM Colony Counts (Mean ± STD),[9]; 30.0 μM,25.7 ± 6.4
COC(=O)[C@H]1[C@@H](OC(=O)c2ccccc2)C[C@@H]2CC[C@H]1N2C [cocaine],IC50,[10],670 µM
same,IC50,[11],290 µM
same,inhibition of recombinant AChE by cocaine,[12],insensitive to inhibition
same,higher IC50 value for cocaine versus normal BuChE,"[13]; serum and recombinant ""atypical""",> 10 fold
same,"inhibition of ""atypical"" enzyme by cocaine",[13]; up to 1 mM,relatively inert
same,increased incidence of congenital anomalies,[14],4 fold
butyrylcholinesterase,protection against cocaine toxicity,[15],confer protection against cocaine toxicity in rats
same,protection against soman,[16],successful in protecting against subsequent injections of soman
